The target in the assay is T1, human plasma BuChE (Homo sapiens, UniProt P06276).
T1 construct: human plasma BuChE; from tissue; host or cells: human plasma
Kind of assay: In vitro inhibition of human plasma BuChE (Table 3). The class given is biochemical. To be noted: n = 4-8, read-out: BuChE IC50 (μM) ± s.e.

Protein sequences, listed by entry. Tags and fused reporters are not part of them. Residues count along the entry.
UniProt P06276, 29-602: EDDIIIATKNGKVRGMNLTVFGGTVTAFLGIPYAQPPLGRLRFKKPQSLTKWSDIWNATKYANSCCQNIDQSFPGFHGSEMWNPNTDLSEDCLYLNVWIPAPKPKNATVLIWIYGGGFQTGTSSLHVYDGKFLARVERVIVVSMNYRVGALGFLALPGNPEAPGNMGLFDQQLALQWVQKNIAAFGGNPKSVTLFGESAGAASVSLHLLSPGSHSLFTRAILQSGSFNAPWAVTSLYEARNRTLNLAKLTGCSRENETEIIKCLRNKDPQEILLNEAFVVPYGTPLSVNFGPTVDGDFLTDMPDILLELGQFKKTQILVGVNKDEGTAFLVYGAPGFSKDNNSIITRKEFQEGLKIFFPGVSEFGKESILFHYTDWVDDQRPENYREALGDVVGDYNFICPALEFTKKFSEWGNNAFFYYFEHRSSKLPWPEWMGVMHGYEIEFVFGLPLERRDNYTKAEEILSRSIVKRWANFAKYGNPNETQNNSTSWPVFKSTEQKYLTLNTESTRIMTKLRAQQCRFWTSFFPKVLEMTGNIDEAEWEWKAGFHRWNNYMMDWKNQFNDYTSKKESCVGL

Molecules are shown by their SMILES.

Regarding `CCN(C)C(=O)Oc1cccc([C@H](C)N(C)C)c1` [SDZ-ENA 713, reference compound], the IC50 (usually the concentration needed to halve the response being measured) was found to be 0.45 ± 0.02 µM.

Values taken from patent publication US6297237A, “Process for the preparation of aminocarbonyl derivatives of geneseroline having selective brain anticholinesterase activity” (priority 1997, dated 2001).
